Test results reported in patent publication US20250290034A1, “METHOD FOR PRODUCING NAÏVE PLURIPOTENT STEM CELLS” (KYOTO UNIVERSITY, priority 2022, published 2025).

Tested on: H9EOS cells
Test: Chemical resetting of primed H9EOS cells to naive state; EGFP-positive cells quantified on Day 14 by flow cytometry
Format: cell-based, human
Experimental: After collecting H9EOS and H9EOS (NK) cells and measuring the cell count in the same manner as for subculturing, they were diluted with AK02N medium containing Y-27632 (Nacalai Tesque, 08945-84) and iMatrix-511 silk (Nippi, 387-10131) (culture medium for primed pluripotent stem cells) and seeded on a multiwell plate (modified method of G. Guo, et. al., 144, 2748-2763 (2017)). […] The resetting efficiency was quantified by counting the cell count using a flow cytometer, with the EGFP-expressing cells as naive cells.
The mimic used for each miRNA was mirVana miRNA Mimic (Thermo Fisher Scientific). […] Culturing was then carried out according to common resetting protocol, and the EGFP-positive cells were quantified on Day 14 using a flow cytometer.
On Day 1 of the resetting protocol shown in FIG. 2, the 22 plasmids were used, either alone or as a mixture of the 22 plasmids minus one each, for transfection together with the transposase-expressing plasmid (pCAG-PBase), using Lipofectamine Stem Transfection Reagent (Thermo Fisher Scientific, STEM00003). […] Culturing was then carried out according to common resetting protocol, and the EGFP-positive cells were quantified on Day 14 using a flow cytometer.
[…] Culturing was then carried out according to common resetting protocol, and the EGFP-positive cells were quantified on Day 14 using a flow cytometer. […]

BMP2: recombinant human bone morphogenetic protein BMP2 added to medium
resetting efficiency compared to chemical (BMP added to medium on Day 2, VPA-containing cRM-1 (FIG. 12)): highly significant increase
resetting efficiency with respect to chemical (VPA-free cRM-1, miR-98-5p transfected Day 1 combined with BMP2 or BMP4 added Day 2 (FIG. 12)): increase
